Reference: PMC3644557

Legend:
[1] = target: FITC labeled RON2 peptide (Plasmodium falciparum); test: MST
[2] = target: FITC labeled RON2 peptide (Plasmodium falciparum); test: fluorescence polarisation
[3] = target: recombinant His-tagged apical membrane antigen 1 (His-AMA1), unlabeled (Plasmodium falciparum), Q7KQK5; test: SPR

Binder	Kd [1]	EC50 [2]	Kd [3]
recombinant His-tagged apical membrane antigen 1 (His-AMA1), unlabeled, Q7KQK5 1-622 (natural protein, modifications not checked) QNYWEHPYQNSDVYRPINEHREHPKEYEYPLHQEHTYQQEDSGEDENTLQHAYPIDHEGAEPAPQEQNLFSSIEIVERSNYMGNPWTEYMAKYDIEEVHGSGIRVDLGEDAEVAGTQYRLPSGKCPVFGKGIIIENSNTTFLTPVATGNQYLKDGGFAFPPTEPLMSPMTLDEMRHFYKDNKYVKNLDELTLCSRHAGNMIPDNDKNSNYKYPAVYDDKDKKCHILYIAAQENNGPRYCNKDESKRNSMFCFRPAKDISFQNYTYLSKNVVDNWEKVCPRKNLQNAKFGLWVDGNCEDIPHVNEFPAIDLFECNKLVFELSASDQPKQYEQHLTDYEKIKEGFKNKNASMIKSAFLPTGAFKADRYKSHGKGYNWGNYNTETQKCEIFNVKPTCLINNSSYIATTALSHPIEVENNFPCSLYKDEIMKEIERESKRIKLNDNDDEGNKKIIAPRIFISDDKDSLKCPCDPEMVSNSTCRFFVCKCVERRAEVTSNNEVVVKEEYKDEYADIPEHKPTYDKMK	0.028 µM	0.048 µM	–
DITQQAKDIGAGPVASCFTTRMSPPQQICLNSVVNTALS (modifications not checked) [unlabeled RON2 peptide]	–	–	0.0383 µM
